Our source for the Ki values is BindingDB's records for doi:10.1002/(SICI)1098-2396(200002)35:2<79::AID-SYN1>3.0.CO;2-X (Institut De Recherches Servier, 2000).

Protein sequences, listed by entry. Tags and fused reporters are not part of them. Lines headed by an entry give the natural chain unless they say otherwise; changes in a name come on top.
UniProt P28335: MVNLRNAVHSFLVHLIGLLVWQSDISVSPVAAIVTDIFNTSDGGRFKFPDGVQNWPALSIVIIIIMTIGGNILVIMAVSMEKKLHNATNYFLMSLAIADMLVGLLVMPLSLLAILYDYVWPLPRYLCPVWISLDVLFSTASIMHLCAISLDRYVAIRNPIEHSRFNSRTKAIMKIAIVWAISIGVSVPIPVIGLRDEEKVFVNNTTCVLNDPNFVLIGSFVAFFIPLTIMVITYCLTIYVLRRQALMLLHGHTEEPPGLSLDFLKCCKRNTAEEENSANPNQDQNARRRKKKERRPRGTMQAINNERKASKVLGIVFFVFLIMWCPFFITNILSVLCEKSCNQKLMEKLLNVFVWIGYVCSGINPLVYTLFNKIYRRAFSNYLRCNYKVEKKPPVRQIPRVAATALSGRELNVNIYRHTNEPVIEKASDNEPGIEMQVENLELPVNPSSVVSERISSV
UniProt P28222, whole entry: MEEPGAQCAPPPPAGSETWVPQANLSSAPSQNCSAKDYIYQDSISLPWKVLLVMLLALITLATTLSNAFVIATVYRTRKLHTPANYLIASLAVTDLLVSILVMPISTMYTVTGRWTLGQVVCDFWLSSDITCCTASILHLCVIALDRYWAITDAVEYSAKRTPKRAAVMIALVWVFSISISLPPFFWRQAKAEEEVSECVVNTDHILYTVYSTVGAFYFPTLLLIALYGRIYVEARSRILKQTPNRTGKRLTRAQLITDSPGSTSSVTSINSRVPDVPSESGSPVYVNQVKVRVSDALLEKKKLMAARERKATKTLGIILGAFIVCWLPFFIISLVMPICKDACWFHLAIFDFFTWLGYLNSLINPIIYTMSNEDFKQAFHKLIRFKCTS

Each structure is given as a SMILES string.

Assay [1] deals with 5-hydroxytryptamine receptor 2C (Homo sapiens, UniProt P28335).
Assay [2] deals with T1, 5-hydroxytryptamine receptor 1B (Homo sapiens, UniProt P28222).
Assay [3] deals with T1, 5-hydroxytryptamine receptor 1B. This is another data set of the same source.

With `COC(=O)[C@@H]1[C@H]2C[C@H]3c4[nH]c5ccccc5c4CCN3C[C@@H]2CC[C@@H]1O` [yohimbic acid methyl ester], the inhibitory constant (Ki) is 1 µM in assay [1], 0.158 µM in assay [2] and 0.158 µM in assay [3].
